# esBAF inh: inhibitors of esBAF chromatin remodeling in mouse ES cells. actives 2% (n = 350,000). AID 602393. Bmi1-luciferase knock-in reporter, 24 h; 100% = twice the neutral-well signal. reporter increase, % at 12.5 µM; in the data active = activation above about 40%; inconclusive = no clear call, values can overlap the other calls;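 also: 0% = median of the plate's neutral control wells and 100% = double that signal; a rise in the Bmi1 reporter signal indicates esBAF inhibition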
# UUG fidelity: modulators of yeast start codon fidelity, primary screen, whole organism, S. cerevisiae, single point, plate reader; S. cerevisiae UUG-firefly luciferase reporter, luminescence/redox ratio; activity score, % at 18.7 µM; actives 0.13% (n = 350,000); AID 602363, 2012;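 active = replicate mean at a twofold rise or more, about +100% in these data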;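 also: firefly luciferase made from a UUG start codon reports start codon fidelity; reporter light over untreated wells divided by growth signal over untreated wells; some hits fall short of that in this replicate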
# PGC1a acetyl inh: modulators of PGC1a acetylation | U2OS PGC1a acetylation, AlphaScreen anti-acetyl-lysine; with virally co-expressed GCN5 acetyltransferase | inhibition, % at 15.6 µM | actives 0.17% (n = 350,000);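 active = every replicate shows inhibition of at least 40%; inconclusive = mean inhibition at least 40% but some replicate below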;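 also: 0% = neutral control wells and 100% = positive control wells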
# PglD DTNB: PglD (C. jejuni) enzyme inhibition. actives 0.098% (n = 360,000). inhibition, % at 12.5 µM. AID 602405. purified PglD enzyme, DTNB colorimetric CoA detection; in the data active = inhibition above about 16%, passing the limit was not always enough; inconclusive = no clear call, values can overlap the other calls
# C2C12 statin: suppressors of simvastatin-induced myotoxicity in C2C12 myotubes. actives 0.78% (n = 330,000). rescue of ATP level, % at 7.49 µM. AID 602340. ATP luminescence, 48 h; scaled: DMSO 0, geranylgeraniol control 100;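 active = mean ATP rescue above about 67%, or every replicate alone reaching that limit, limit read from the data, passing the limit was not always enough; inconclusive = no clear call, values can overlap the other calls; inactive = mean under the limit and some replicate under it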;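 also: myotubes were challenged with 10 µM simvastatin during compound exposure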
# E-sel inducer: E-selectin induction on HUVECs; P16581; HUVEC E-selectin immunofluorescence imaging; normalized: neutral wells 0, TNF-alpha wells 100; activation, % at 7.58 µM; actives 0.37% (n = 260,000); AID 686992;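 active = mean E-selectin-positive cell signal at least 10% of the positive control, reached in at least 60% of replicates, without over 20% cell loss; inconclusive = no rule given, readout overlaps actives, possibly toxicity-flagged; inactive = the rest, including those meeting only one limit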
#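 Test system – human umbilical vein endothelial cells (HUVEC), E-selectin induction · Input – 3,000 HUVEC seeded per well · Buffer or medium – EGM-2, gelatin · Compound dosing – single-point compound dose · Detection – immunofluorescence imaging · Measure – percent E-selectin-positive cells · Controls – TNF-alpha high, DMSO low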
# esBAF Ring1 qPCR: confirmation of esBAF inhibitors: Ring1 de-repression in mouse ESCs | shares compounds with esBAF inh | mouse ESC E14, Ring1 mRNA RT-qPCR fold change | fold change at 33 µM | 550 tested, under 10 active | AID 743176;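 active = Ring1 gene expression raised more than 2-fold over untreated cells in both replicates at either tested dose; inconclusive = only one replicate above 2-fold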;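 also: Ring1 transcript normalised to actin housekeeping signal by TaqMan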
# esBAF Fgf4 qPCR: confirmation of esBAF inhibitors: Fgf4 repression in mouse ESCs; Fgf4 expression fold change at 33 µM; mouse ESC E14, Fgf4 mRNA qPCR fold change; active compounds read low; shares compounds with esBAF inh; actives 4% (n = 550);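 active = Fgf4 expression under 0.8 fold of control in both repeat measurements at one or both tested doses; inconclusive = under 0.8 fold in just a single repeat measurement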;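 also: Fgf4 transcript normalised to actin in duplex TaqMan qPCR; cells exposed to compound for 24 h before lysis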
# Bmi1 derepress: de-represses Bmi1 in mouse ESCs, confirming esBAF inhibition. shares compounds with esBAF inh. mouse ESE14 ES cells, Bmi1 mRNA qPCR fold; active compounds read high. fold change at 33 µM. 550 tested, under 10 active. AID 743180;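 active = Bmi1 expression fold change above 6 at either tested concentration, seen in replicate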;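 also: higher fold means more Bmi1 de-repression and stronger esBAF inhibition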
# A549 cytotox: kills or reduces viability of A549 cells | 550 tested, under 10 active | AID 743188 | A549 cytotoxicity, plate reader | cell viability change % (negative = cytotoxic), % at 25 µM, hits read low | shares compounds with esBAF inh; call rule not given here
# HepG2 tox SP: HepG2 cell cytotoxicity at single point; actives 4% (n = 550); plate reader; active compounds read low; activity change, negative = inhibition, % at 25 µM; shares compounds with esBAF inh; AID 743189; in the data active = activity change below about -50%
# HEK293 tox SP: HEK293 cell cytotoxicity at single point. plate reader. actives 3% (n = 550). activity change, negative = inhibition, % at 25 µM, hits read low. shares compounds with esBAF inh; in the data active = activity change below about -38%, passing the limit was not always enough
# The depositor's hits bear a star; ? = inconclusive; · = not tested or not shown. Most compounds without a hit are left out; they make up all but 2.8% or so of the library.
no. | mol | esBAF inh | UUG fidelity | PGC1a acetyl inh | PglD DTNB | C2C12 statin | E-sel inducer
1 | O=C(Nc1ccc(Cl)c(Cl)c1)c1ccc(Cl)c(Cl)c1 | ? | -19 | · | -1 | 0 | 0
2 | O=C(Nc1ccc(Cl)c(Cl)c1)c1ccncc1 | 65* | -5 | -21 | -1 | 4 | ·
3 | O=C(Nc1ccc2c(c1)COC2=O)c1ccc(Cl)c(Cl)c1 | 75* | -12 | · | 4 | -4 | 0
4 | COc1cc(CNc2ccc(S(N)(=O)=O)cc2)ccc1OCc1ccccc1F | 96* | 4 | · | -6 | -1 | 0
5 | O=C(Nc1nccs1)C(=O)c1c[nH]c2ccccc12 | 68* | -18 | -9 | -5 | -23 | ·
6 | O=C(Cc1c[nH]c2ccccc12)Nc1nccs1 | 13 | -11 | -7 | -6 | 11 | ·
7 | Cc1ccc(NC(=O)C2CCCN(C(=O)c3ccc(Cl)cc3)C2)cc1C (stereo not drawn) | 69* | -1 | 6 | -10 | -4 | -2
8 | Cc1ccc(NC(=O)C2CCCN(c3ncccn3)C2)cc1F (stereo not drawn) | 73* | -12 | · | 0 | -4 | ·
9 | O=C(Nc1ccc(F)cc1)N1CC(=O)N2[C@@H](CO)[C@H](c3ccc(-c4ccc(F)cc4)cc3)[C@@H]2C1 | · | · | 10 | · | · | 0
10 | CCCN(C)C[C@H]1Oc2cc(-c3ccccc3)ccc2S(=O)(=O)N([C@H](C)CO)C[C@H]1C | 0 | -11 | 16 | -2 | -85 | 1
11 | CC(=O)NC[C@@H]1[C@@H](c2ccc(C3=CCCCC3)cc2)[C@@H](CO)N1C(=O)C1CCC1 | · | · | 3 | · | · | 0
12 | CCC(=O)N1[C@H](CO)[C@H](c2ccc(-c3ccncc3)cc2)[C@@H]1CN(C)C(C)=O | · | · | · | · | · | 0
13 | CCNC(=O)[C@H]1[C@H](CO)[C@H]2Cn3c(ccc(-c4ccccc4F)c3=O)[C@H]2N1C | -4 | · | · | -2 | -7 | 0
14 | Cn1c(/C(C#N)=C(\O)c2ccc([N+](=O)[O-])s2)nc2ccccc21 | 23 | -5 | 8 | 0 | -2 | 0
15 | Cn1c(/C(C#N)=C(\O)c2ccc(Cl)s2)nc2ccccc21 | 70* | -20 | 1 | 0 | -9 | ·

no. | esBAF Ring1 qPCR | esBAF Fgf4 qPCR | Bmi1 derepress | A549 cytotox | HepG2 tox SP | HEK293 tox SP
1 | · | · | · | · | · | ·
2 | 1.2 | 1 | 1.5 | 0 | 22 | -8
3 | 1.3 | 1.1 | 1 | -14 | -32 | -12
4 | 1.1 | 1 | 2 | -1 | -9 | -23
5 | 1.1 | 0.87 | 1.5 | -9 | -13 | -9
6 | · | · | · | · | · | ·
7 | 0.98 | 1.1 | 1.5 | -7 | -29 | -32
8 | 1.3 | ? | 1.6 | 0 | -18 | -7
9 | · | · | · | · | · | ·
10 | · | · | · | · | · | ·
11 | · | · | · | · | · | ·
12 | · | · | · | · | · | ·
13 | · | · | · | · | · | ·
14 | · | · | · | · | · | ·
15 | 1.4 | ? | 1.6 | 6 | 8 | 27

# Taken from above.
# no. 12 in E-sel inducer = 0
# no. 14 in PGC1a acetyl inh = 8
# no. 10 in UUG fidelity = -11

# Other structures
no. | mol | esBAF inh | UUG fidelity | PGC1a acetyl inh | PglD DTNB | C2C12 statin | E-sel inducer
16 | C[C@H]1CN([C@@H](C)CO)C(=O)c2cc(NC(=O)Nc3ccc4c(c3)OCO4)ccc2O[C@H]1CN(C)Cc1ccccc1 | -4 | 7 | -5 | -9 | -12 | 0
17 | CN(C)CC(=O)N1CCCCN2[C@@H](CO)[C@H](c3ccc(/C=C/c4ccccc4)cc3)[C@@H]2C1 | -1 | -3 | -57 | 1 | -92 | -1
18 | O=C1C(=NO)CCCc2ccccc21 | 14 | -14 | -1 | 6 | -5 | 0
19 | O=C1C(=C2CCc3ccccc32)Cc2ccccc21 | 71* | -14 | -12 | -1 | 11 | 1

no. | esBAF Ring1 qPCR | esBAF Fgf4 qPCR | Bmi1 derepress | A549 cytotox | HepG2 tox SP | HEK293 tox SP
16 | · | · | · | · | · | ·
17 | · | · | · | · | · | ·
18 | · | · | · | · | · | ·
19 | 1.2 | 1.1 | 1.5 | -3 | 22 | -3

# Two entries drawn at random from the list so far:
no. | mol | esBAF inh | UUG fidelity | PGC1a acetyl inh | PglD DTNB | C2C12 statin | E-sel inducer
17 | CN(C)CC(=O)N1CCCCN2[C@@H](CO)[C@H](c3ccc(/C=C/c4ccccc4)cc3)[C@@H]2C1 | -1 | -3 | -57 | 1 | -92 | -1
19 | O=C1C(=C2CCc3ccccc32)Cc2ccccc21 | 71* | -14 | -12 | -1 | 11 | 1

no. | esBAF Ring1 qPCR | esBAF Fgf4 qPCR | Bmi1 derepress | A549 cytotox | HepG2 tox SP | HEK293 tox SP
17 | · | · | · | · | · | ·
19 | 1.2 | 1.1 | 1.5 | -3 | 22 | -3
